Source: PubChem BioAssay
Compounds with a hit are over-represented: about 2.2% of the library has one in this group of screens.
A549 tox-1 = A549 cytotoxicity, counter-screen for Nrf2 inhibitors | A549 ARE-Fluc cells, CellTiter-Fluor viability, 18-24 h | Potency, µM (highest dose often 46 µM), usual class: inhibitors | actives 0.16% (n = 390,000)
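A549 ARE_Fluc cells in 5% FBS OPTI-MEM were exposed to compounds in concentration-response for 18-24 h at 37 deg C. Viability was read by CellTiter-Fluor fluorescence (Ex 405/Em 525) after 30 min, before the luciferase read.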
Nrf2 block = inhibitors of Nrf2 signaling; A549 ARE-Fluc reporter, luciferase luminescence, 18-24 h; Potency, µM (titrated, usually from 46 µM), usual class: inhibitors; actives 2.1% (n = 360,000); AID 504444; note: nearly all actives have a fitted effect of over 60% in size
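Quantitative HTS in A549 cells stably bearing an antioxidant response element-firefly luciferase construct. Inhibition of Nrf2-driven transcription was scored by luminescence after 18-24 h of compound exposure at 37 °C.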
GALK inhibitor = galactokinase (human) inhibition; P51570; Purified GALK, Kinase-Glo residual ATP luminescence; Potency, µM (top dose mostly 57.5 µM), most hits filed as inhibitors; actives 0.007% (n = 270,000); AID 1868
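Kinase-Glo Plus luminescence measured ATP left after a 1 h room-temperature reaction. The reaction used 5 nM GALK, 100 uM galactose and 35 uM ATP at pH 8.0 (20 mM HEPES, 5 mM MgCl2, 60 mM NaCl, 1 mM DTT, 0.01% BSA).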
Nrf2 ARE act = activators of Nrf2 (ARE) signaling; AREc32 ARE-luciferase reporter (MCF7-derived line), luminescence, 24 h; Potency, µM (series often up to 46.1 µM), hits mostly activators; actives 0.31% (n = 410,000); note: nearly all actives have a fitted effect of over 65% in size
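Reporter line AREc32 (ARE-Fluc), seeded overnight in OPTI-MEM with 5% FBS; compound pin-transferred, 24 hr at 37 deg C, 5% CO2; luminescent read-out.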
miR-21 reporter = miR-21 reporter, rising signal; HeLa miR-21 FLuc reporter, luciferase, 48 h; Potency, µM (titrated, usually from 38.3 µM); AID 2288; 340,000 tested, under 10 active; active = well fitted rising curve with a large enough effect; inconclusive = small, poorly fitted or top-dose-only effect; inactive = no such curve, though single readings can be large or run the other way;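 further: miR-21 action dims this reporter so a rising signal means less miR-21 action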
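HeLa cells stably expressing CMV-driven firefly luciferase with a downstream miR-21 binding sequence, endogenously expressing miR-21, were treated with titrations (up to about 40uM final) for 48 hours at 37 degree Celsius. Luciferase luminescence was read after lysis.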
PI4K2A inh = inhibitors of human PI4K2A; Q9BTU6; purified PI4K2A, ADP-Glo luminescence, 1 h; stronger effect = lower value; activity change, negative = inhibition, % at 76.9 µM; actives 0.13% (n = 420,000); AID 1346378; in the data active = activity change below about -50%; inconclusive = mostly about -30% to -49%
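Compounds are screened against recombinant PI4K2A using PI as substrate and ATP, the latter dispensed at 300 microM. Reactions run one hour at ambient temperature before ADP-Glo detection; full inhibition defined by wells lacking enzyme.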
FLuc enzyme inh = blocks purified firefly luciferase in Nrf2 counterscreen | Potency, µM (doses to about 57.5 µM), hits mostly inhibitors | purified firefly luciferase, luminescence inhibition | shares compounds with Nrf2 block | actives 4% (n = 1,400); note: nearly all actives have a fitted effect of over 65% in size
A549 tox-2 = toxic to A549 ARE-Fluc cells in Nrf2 counterscreen; Potency, µM (titrated, usually from 46.1 µM), usual class: inhibitors; shares compounds with Nrf2 block; actives 2% (n = 1,400); A549 ARE-Fluc cells, cytotoxicity counterscreen;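 note: cells exposed to compounds for 18 to 24 hours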
Nrf2 ARE inh = Nrf2 inhibition confirmed, A549 ARE-luciferase | Potency, µM (doses to about 46.1 µM), most hits filed as inhibitors | AID 720524 | shares compounds with Nrf2 block | actives 74% (n = 1,400) | A549 ARE-firefly luciferase reporter, luminescence; note: nearly all actives have a fitted effect of over 65% in size
Hits are given with their value; i = inactive; ? = inconclusive; nt = no result. Unless noted, calls come from the whole dose curve; as a rule, active = well fitted curve in the direction sought with a large enough effect; inconclusive = small, poorly fitted or top-dose-only effect, or another doubt; inactive = no such curve, though single readings can be large; an effect the other way counts as inactive or inconclusive.

SMILES | A549 tox-1 | Nrf2 block | GALK inhibitor | Nrf2 ARE act | miR-21 reporter | PI4K2A inh | FLuc enzyme inh | A549 tox-2 | Nrf2 ARE inh
CCC[C@H]1NC(=O)[C@H](C)N(C)C(=O)C(C)(C)C(=O)C(C)NC(=O)[C@H](Cc2ccc(OC)cc2)N(C)C(=O)[C@H](C(C)C)N(C)C(=O)CNC(=O)[C@H](CC(C)C)N(C)C(=O)CNC(=O)[C@H]([C@@H](C)CC)OC(=O)[C@H]1C (stereo partly specified) | 1.5µM | 1µM | nt | i | nt | i | i | ? | 1.8µM
CC[C@H](C)C1OC(=O)[C@@H](C)[C@@H](CC)NC(=O)[C@H](C)N(C)C(=O)C(C)(C)C(=O)C(C)NC(=O)[C@H](Cc2ccc(OC)cc2)N(C)C(=O)[C@H](C(C)C)N(C)C(=O)CNC(=O)[C@H](CC(C)C)N(C)C(=O)CNC1=O (stereo partly specified) | nt | nt | nt | i | nt | i | nt | nt | nt
O=C(Nc1c(-c2ccccc2)nc2ncccn12)c1ccc(F)cc1 | nt | nt | nt | nt | nt | i | nt | nt | nt
CC(C)C[C@H]1COc2cccc(F)c2S(=O)(=O)N1Cc1cn(Cc2ccc(F)cc2)nn1 | nt | nt | nt | nt | nt | i | nt | nt | nt
CCC(C)(C)c1ccc(OCCCC[n+]2cccc(C)c2)c(C(C)(C)CC)c1 | ? | 8.2µM | i | i | ? | i | i | ? | 6.5µM
Cc1ccc[n+](CC(=O)Nc2cc(C(F)(F)F)ccc2Cl)c1 | i | i | i | i | i | i | nt | nt | nt
O=C(N/N=C(\Cc1ncc[nH]1)c1ccccc1)c1cccnc1 | i | 2.3µM | i | i | i | i | i | i | 8.2µM
O=C(N/N=C(\c1ccccc1)c1cccnc1)c1cccc(F)c1 | ? | 7.3µM | i | ? | i | i | i | ? | 1.8µM
O=C(N/N=C(\Cc1ncc[nH]1)c1ccccc1)c1ccccc1 | nt | nt | i | nt | i | nt | nt | nt | nt
COC(=O)[C@]1(CNC(=O)Nc2ccc(C)c(Cl)c2)CC(=O)N(C)[C@@H]1c1ccccc1 | nt | nt | nt | nt | nt | i | nt | nt | nt
CN(Cc1ccccc1F)C(=O)C1CCC(CNS(=O)(=O)c2cccc3cccnc23)CC1 (stereo unspecified) | nt | nt | nt | nt | nt | i | nt | nt | nt
COC(=O)[C@]12C[C@H](CC(=O)N3CCSCC3)C(=O)N(Cc3ccco3)C1=C[C@H](C(C)(C)C)O[C@@H]2C | nt | nt | nt | nt | nt | i | nt | nt | nt
O=C(CSc1nnc(-c2ccc(Cl)cc2)c(-c2ccc(Cl)cc2)n1)NC1CCCC1 | i | nt | nt | i | i | i | nt | nt | nt
Cc1ccc(-c2nnc(SCC(=O)NC3CCCC3)nc2-c2ccc(C)cc2)cc1 | ? | 1.8µM | nt | i | i | i | i | i | i
O=C(Nc1cc(S(=O)(=O)N2CCCCC2)ccc1Cl)c1ccccc1NS(=O)(=O)c1ccc(F)cc1 | ? | 3.7µM | i | i | ? | i | i | ? | 4.6µM
CCOC(=O)[C@@]12CCCC3=C1N(CCC3)C(=O)[C@H]2CC(=O)NCCCOC | nt | nt | nt | nt | nt | i | nt | nt | nt
C=CC[n+]1c(/C=C2\C=Cc3cc(C)ccc3N2CC)ccc2ccccc21 | ? | 4.6µM | i | i | ? | i | i | 15µM | 2.3µM
CN1C(=O)c2cc(NC(=O)c3ccc(F)cc3)ccc2OC[C@H]2O[C@H](CC(=O)NC3CCC3)CC[C@H]21 | nt | nt | nt | nt | nt | i | nt | nt | nt
CCOc1ccc(C(=O)Nc2ccc3nc(SCC(=O)N4CCCC4)sc3c2)cc1 | i | i | nt | i | i | i | nt | nt | nt
CCOc1ccc(C(=O)Nc2ccc3nc(SCC(=O)N(C)c4ccccc4)sc3c2)cc1 | i | 5.8µM | nt | i | ? | i | ? | i | 8.2µM
CCN(CC)CCCNC(=O)c1cn(C(C)c2ccccc2)nn1 (stereo unspecified) | nt | nt | nt | nt | nt | i | nt | nt | nt
